Molecular target: human growth hormone secretagogue receptor (hGHS-R1a) (human) (UniProt Q92847)
Assay: cell-based or functional assay

Chains of the proteins cited; added tags and fusions are not shown.
UniProt Q92847, whole entry: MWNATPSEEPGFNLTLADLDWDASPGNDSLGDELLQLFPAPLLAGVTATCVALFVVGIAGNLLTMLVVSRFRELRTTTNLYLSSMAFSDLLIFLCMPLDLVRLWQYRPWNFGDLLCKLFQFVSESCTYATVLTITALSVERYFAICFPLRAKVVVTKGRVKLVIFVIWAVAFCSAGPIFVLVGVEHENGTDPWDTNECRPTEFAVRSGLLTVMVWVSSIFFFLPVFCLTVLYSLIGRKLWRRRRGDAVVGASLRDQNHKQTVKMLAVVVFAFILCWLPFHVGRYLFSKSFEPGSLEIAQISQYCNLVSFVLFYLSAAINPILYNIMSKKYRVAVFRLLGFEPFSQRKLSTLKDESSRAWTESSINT

EC80 (aequorin luminescence, CHO-K1 cells with human ghrelin receptor): 3.7 nM
Substance: Ghrelin (Bachem, #H-4864) (from UniProt Q9UBU3 24-51) (peptide)
